One experiment concerns MDA-MB-231 cells. The experiment is described as follows: alamarBlue proliferation assay with MDA-MB-231 cells (glucose-free Leibovitz's L-15 medium). Background: The colour change of resazurin is a common sign of viable cells or microbes.
The subject of a further experiment is CF21.T cells. The experiment is described as follows: alamarBlue proliferation assay with CF21.T cells. Conditions: read-out: Activity on CF21.T: IC50; CF21.T canine cells, DMEM medium, 10% FBS. The source says:
(§1) These hyperproliferative processes can be benign or malignant and include hyperplasia, neoplasia, cancer and pre-cancerous lesions, and metastases. The antiproliferative activities of compounds falling under general formula (I) were investigated on human primary epidermal keratinocytes (HPEK) and human, murine and canine cell lines derived from hyperproliferative tissue or different cancer types, including MDA-MB-231, ZR-75-30, HCC-1395, HCC-1937, and T-47D all originating from cancer of the breast, JURKAT, RPMI-8402, LOUCY, TANQUE, REC-1, HL-60, NB-4 all originating from different types of blood cancer including lymphoma and leukemia of T-cells, B-cells and myeloid cells, TT originating from cancer of the neuroendocrine system, HeLa originating from cancer of the cervix, 23132/87, SW-948, and HCT-116 all originating from cancer of the gastrointestinal tract including stomach and colon, BHY originating from cancer of the mucosal epithelium, A-431 originating from cancer of the skin, HEP-G2 originating from cancer of the liver, NCI-H460 and A-549 both originating from cancer of the lung, PANC-1 originating from cancer of the pancreas, U-87 MG originating from cancer of the brain, A-375 and RVH-421 both originating from cancer of melanocytes, SW-1353 originating from cancer of bone-derived chondrocytes, C2C12 a mouse cell line originating from hyperproliferative muscle progenitor cells, LL/2 a mouse cell line originating from cancer of the lung, CF21.T a dog cell line originating from cancer of the connective tissue. To this end, according cells were seeded into 96-well plates (CORNING #3598) suitable for fluorescence assays at following initial cell numbers: 1000 cells per well for HPEK; 3000 cells per well for MDA-MB-231, 8000 cells per well for ZR-75-30, 1500 cells per well for HCC-1395, 1500 cells per well for HCC-1937, 3000 cells per well for T-47D, 1500 cells per well for JURKAT, 5000 cells per well for RPMI-8402, 9000 cells per well for LOUCY, 1500 cells per well for TANQUE, 9000 cells per well for REC-1, 1000 cells per well for HL-60, 1000 cells per well for NB-4, 9000 cells per well for TT, 2000 cells per well for HeLa, 2000 cells per well for 23132/87, 9000 cells per well for SW-948, 700 cells per well for HCT-116, 1500 cells per well for BHY, 700 cells per well for A-431, 1500 cells per well for HEP-G2, 500 cells per well for NCI-H460, 1000 cells per well for A-549, 1500 cells per well for PANC-1, 2500 cells per well for U-87 MG, 700 cells per well for A-375, 1500 cells per well for RVH-421, 2000 cells per well for SW-1353, 500 cells per well for C2C12, 500 cells per well for LL/2, and 3000 cells per well for CF21.T. In a volume of 90 μL per well of culture medium the cells were treated with compounds at indicated final concentrations by adding 10 μL per well of 10× compound working solutions from 1:100 pre-diluted 1000× compound DMSO stock-solutions in H2O (Water For Injection, WFI, Fisher Scientific, Gibco™ #A12873) or with the empty carrier DMSO (AppliChem, #A3672) at 0.1% v/v as control yielding a final volume of 100 μL per well. At day 5 after starting the treatments the cells were subjected to the alamarBlue® Proliferation Assay (Bio-Rad Serotec GmbH, BUF012B) according to the protocol of the manufacturer. The readout was taken with a multi-well plate-reader (Tecan Spark®) in the fluorescence mode with applying a filter for excitation at 560 nm (band width 10 nm) and for emission at 590 nm (band width 10 nm). Treatment for maximum proliferation inhibition with the commercial cytotoxic compound (S)-(+)-camptothecin (Fluorochem #M01564) at a concentration of 10 μM was included on each plate for assay quality control. Some of the test compounds of the present invention may have been obtained and applied as their salt forms.
(§2) The assays were performed in duplicate or more replicates of independent single experiments each containing a three- to six-fold replicate for every condition. […]

A further experiment concerns A-375 cells. The experiment is described as follows: alamarBlue proliferation assay with A-375 cells. The note with it: read-out: Activity on A-375: IC50, DMEM medium, 10% FBS.
In another experiment the test system is A-431 cells. The experiment is described as follows: alamarBlue proliferation assay with A-431 cells. Conditions: read-out: Activity on A-431: IC50, DMEM medium, 10% FBS.
The subject of a further experiment is LL/2 cells. The experiment is described as follows: alamarBlue proliferation assay with LL/2 cells. Conditions: read-out: Activity on LL/2: IC50; LL/2 murine Lewis lung carcinoma cells, DMEM medium, 10% FBS.
For the next experiment, the system named is A-549 cells. The experiment is described as follows: alamarBlue proliferation assay with A-549 cells. The note with it: read-out: Activity on A-549: IC50, DMEM medium, 10% FBS.
In another experiment the test system is T-47D cells. The experiment is described as follows: alamarBlue proliferation assay with T-47D cells. Conditions: read-out: Activity on T-47D (IC50), day 5.
Text: as §1, §2

For the next experiment, the system named is BHY cells. The experiment is described as follows: alamarBlue proliferation assay with BHY cells. The note with it: read-out: Activity on BHY: IC50, DMEM medium, 10% FBS.
The test system of another experiment is NB-4 cells. The experiment is described as follows: alamarBlue proliferation assay with NB-4 cells. The note with it: read-out: Activity on NB-4: IC50, RPMI 1640 medium, 10% FBS.
A further experiment concerns HCT-116 cells. The experiment is described as follows: alamarBlue proliferation assay with HCT-116 cells. Conditions: read-out: Activity on HCT-116: IC50, McCoy's 5A medium, 10% FBS.
A further experiment deals with TANQUE cells. The experiment is described as follows: alamarBlue proliferation assay with TANQUE cells. Conditions: read-out: Activity on TANOUE: IC50, RPMI 1640 medium, 10% FBS.
A further experiment concerns SW-1353 cells. The experiment is described as follows: alamarBlue proliferation assay with SW-1353 cells (glucose-free L-15 medium). The note with it: read-out: Activity on SW-1353: IC50, Leibovitz's L-15 medium, 10% FBS, 0% CO2.
In the next experiment the test system is PANC-1 cells. The experiment is described as follows: alamarBlue proliferation assay with PANC-1 cells. The note with it: read-out: Activity on PANC-1: IC50, DMEM medium, 10% FBS.
Text: as §1, §2

The next experiment deals with NCI-H460 cells. The experiment is described as follows: alamarBlue proliferation assay with NCI-H460 cells. Conditions: read-out: Activity on NCI-H460: IC50, RPMI 1640 medium, 10% FBS.
The next experiment relates to HPEKp cells. The experiment is described as follows: proliferation assay with human epidermal keratinocyte progenitors (HPEKp), selectivity versus MDA-MB-231. Conditions: read-out: Activity (HPEK); HPEK cells (HPEKp); antiproliferative activity, class by IC50.
Experiment [1] relates to mitochondrial transmembrane potential Δψm in A-549 cells. The experiment is described as follows: mitochondrial activity assay (TMRE staining, mitochondrial transmembrane potential) on A-549 cells. Conditions: A-549 cells, compounds at 10 μM, 2 h 40 min, TMRE staining, relative to DMSO = 1.0.
Another experiment has as its system HEP-G2 cells. The experiment is described as follows: alamarBlue proliferation assay with HEP-G2 cells. Conditions: read-out: Activity on HEP-G2: IC50, RPMI 1640 medium, 10% FBS.
Setting [2] is: read-out: Activity on MDA-MB-231 (IC50), glucose-free Leibovitz's L-15, 10% FBS, day 5, alamarBlue.
The mark [3] stands for this setting: read-out: Activity (MDA), MDA-MB-231 cells, antiproliferative activity, class by IC50.

Read-outs that look alike come from different tables or passages of the source. A value given as a limit tells only on which side of the number the result lay.

This is an account of results in patent publication US20260384421A1, “NOVEL COMPOUNDS THAT CAN BE USED AS THERAPEUTIC AGENTS” (published 2026).

Consider `O=C(c1ccc(Oc2ccc(C3CCC4(CC3)SCCS4)cc2CO)cc1)N1CCN(Cc2ccc(Cl)cc2)CC1`, for which the IC50 in the experiment on MDA-MB-231 cells (setting [2]) is no more than 200 nM; with CF21.T cells, no more than 5000 nM; in the experiment with A-375 cells, no more than 200 nM; in the experiment with A-431 cells, no more than 200 nM; with LL/2 cells, no more than 200 nM; with A-549 cells, no more than 200 nM. Besides, the IC50 is no more than 5000 nM with T-47D cells; no more than 200 nM with BHY cells; no more than 200 nM in the experiment on NB-4 cells; no more than 200 nM in the experiment with HCT-116 cells; no more than 200 nM in the experiment on TANQUE cells.

As to `O=C(c1ccc(Oc2ccc(C3CCC4(CC3)OCCO4)cc2CO)cc1)N1CCN(Cc2ccc(Cl)nc2)CC1`, the IC50 was less than 1000 nM in the experiment on MDA-MB-231 cells (setting [3]); no more than 200 nM in the experiment on MDA-MB-231 cells (setting [2]); no more than 1000 nM in the experiment with LL/2 cells; no more than 200 nM in the experiment with A-549 cells; no more than 200 nM with SW-1353 cells; no more than 200 nM in the experiment on BHY cells. Also, the IC50 with NB-4 cells is no more than 200 nM; with PANC-1 cells it was no more than 5000 nM; in the experiment on HCT-116 cells, no more than 200 nM; in the experiment with NCI-H460 cells, no more than 200 nM; with HPEKp cells, less than 10000 nM; in the experiment on TANQUE cells it was no more than 200 nM.

With `COc1ccc(CN2CCN(C(=O)c3ccc(Oc4ccc(C5CCC6(CC5)SCCS6)cc4C=O)cn3)CC2)cc1`, the IC50 was no more than 200 nM in the experiment on MDA-MB-231 cells (setting [2]); no more than 5000 nM in the experiment with CF21.T cells; no more than 200 nM in the experiment on A-375 cells; no more than 1000 nM with LL/2 cells; no more than 200 nM with A-549 cells; no more than 5000 nM in the experiment with T-47D cells. The IC50 in the experiment with BHY cells, in the experiment on NB-4 cells, in the experiment with HCT-116 cells and with TANQUE cells was no more than 200 nM throughout. Moreover, the “Activity: relative mitochondrial transmembrane potential Δψm” value in [1] is listed as “Δψm ≤0.7”.

Turning to `O=Cc1cc(C2CCC3(CC2)SCCS3)ccc1Oc1ccc(C(=O)N2CCN(Cc3ccc(Cl)cc3)CC2)nc1`, the IC50 is no more than 200 nM with MDA-MB-231 cells (setting [2]); no more than 5000 nM with CF21.T cells; no more than 200 nM with A-375 cells; no more than 1000 nM in the experiment with LL/2 cells; no more than 200 nM in the experiment on A-549 cells; no more than 5000 nM in the experiment on T-47D cells. The IC50 in the experiment on BHY cells, with NB-4 cells, in the experiment on HCT-116 cells and in the experiment with TANQUE cells was no more than 200 nM throughout. Also, the “Activity: relative mitochondrial transmembrane potential Δψm” value in experiment [1] is “Δψm ≤0.7”.

With `COc1ccc(CN2CCN(C(=O)c3ccc(Oc4ccc(C5CCC6(CC5)SCCS6)cc4C=O)cc3)CC2)cc1`, the IC50 in the experiment on MDA-MB-231 cells (setting [2]) was no more than 200 nM; with CF21.T cells, no more than 5000 nM; with A-375 cells, no more than 200 nM; in the experiment with LL/2 cells, no more than 1000 nM; in the experiment on A-549 cells it was no more than 200 nM; in the experiment on T-47D cells, no more than 5000 nM. Besides, the IC50 in the experiment on BHY cells, in the experiment with NB-4 cells, in the experiment on HCT-116 cells and in the experiment with TANQUE cells was no more than 200 nM in each case.

As to `COC1CCC(c2ccc(Oc3ccc(C(=O)N4CCN(Cc5ccc(Cl)cn5)CC4)nc3)c(CO)c2)CC1` (centres unmarked), the IC50 with MDA-MB-231 cells (setting [3]) was less than 1000 nM; in the experiment with MDA-MB-231 cells (setting [2]), no more than 200 nM; in the experiment with CF21.T cells, no more than 1000 nM; in the experiment with HEP-G2 cells, no more than 200 nM; with LL/2 cells it was no more than 1000 nM; in the experiment on A-549 cells, no more than 200 nM. In addition, the IC50 with T-47D cells is no more than 5000 nM; with BHY cells, no more than 200 nM; in the experiment with NB-4 cells, no more than 200 nM; with HCT-116 cells, no more than 200 nM; with HPEKp cells, less than 10000 nM; in the experiment on TANQUE cells, no more than 200 nM.

As for `CC1(C)COC2(CCC(c3ccc(Oc4ccc(C(=O)N5CCN(Cc6ccc(Cl)cc6)CC5)cc4)c(C=O)c3)CC2)OC1`, the IC50 with MDA-MB-231 cells (setting [2]) is no more than 200 nM; with CF21.T cells, no more than 5000 nM; with A-375 cells it was no more than 200 nM; in the experiment on LL/2 cells it was no more than 1000 nM; with A-549 cells, no more than 200 nM; in the experiment with T-47D cells, no more than 5000 nM. Further, the IC50 in the experiment with BHY cells, with NB-4 cells, in the experiment with HCT-116 cells and with TANQUE cells was no more than 200 nM in each case. In addition, the “Activity: relative mitochondrial transmembrane potential Δψm” value in [1] is “Δψm ≤0.7”.

For the molecule `COC1CCC(c2ccc(Oc3ccc(C(=O)N4CCN(Cc5ccccc5)CC4)cc3)c(CO)c2)CC1` (centres unmarked), the IC50 with MDA-MB-231 cells (setting [3]) was less than 1000 nM; in the experiment on MDA-MB-231 cells (setting [2]), no more than 200 nM; in the experiment on LL/2 cells, no more than 5000 nM; in the experiment with SW-1353 cells, no more than 200 nM; with BHY cells, no more than 200 nM; in the experiment on NB-4 cells, no more than 200 nM. Further, the IC50 is no more than 5000 nM in the experiment on PANC-1 cells; no more than 200 nM with HCT-116 cells; no more than 200 nM in the experiment on NCI-H460 cells; less than 10000 nM with HPEKp cells; no more than 200 nM with TANQUE cells.
